Data published in patent US20090253629A1 (priority 2008, published 2009).
“And” between values parts separate entries of the source, which are not always exact repeats. Identical values can stand only once. Like-named read-outs stand apart in the source and are kept apart here.

Key:
[1] = system: penicillin-resistant serotype 9V Streptococcus pneumoniae (1395); details: for bacterial burden in the cerebrospinal fluid: individual rabbits
in vivo = assay: in vivo; set-up: species or system New Zealand white rabbits; details: infected rabbits; for Cmax: male, New Zealand white, rabbit, in vivo, iv, read-out: Peak concentration in serum
Protocol: Male New Zealand white rabbits weighing approx. 2500 g was used for the experiments. The rabbits arrived at the facilities 1-2 weeks prior to the experiment to allow for adaptation. They were kept in single cages covered with hay and offered food and water with no restrictions. Veterinarian expertise was available at the laboratory, and the experimental design was approved by the local animal legislation committee.
The rabbit was weighed and anaesthetized with dormicum 0.5 ml/kg (midazolam 5 mg/ml) s.c. and after 10 minutes with hypnorm 0.35 ml/kg (fentanylcitrat+fluanison) i.m.
The ears, scalp and neck of the rabbit were shaved and the skin disinfected. An incision measuring approx. 2 cm was made on the forehead of the rabbit and the scalp was exposed by blunt dissection. 4 bore holes were made demarcating a square and 4 screws were screwed up at right angles to the surface (2.5 to 3 turns). An acrylic helmet, embedding a turnbuckle, was moulded from dental casting material directly onto the scalp of the rabbit and the helmet was cooled under running water. The rabbit was put back into its cage with free access to food and water to rest for 8-10 hours until the time of bacterial inoculation or start of pharmacokinetic treatment study on uninfected rabbits. Analgesia with buprenorfin, 0.1 mg/kg, was given.
In the evening, at 10 p.m., the day before the treatment experiments with Meningicin, the rabbit was re-anaesthetized with hypnorm-dormicum. The head of the rabbit was immobilised in a stereotactic frame and a spinal canula was introduced in cisterna magna for the inoculation of 1×10^5 CFU pneumococci. After the bacterial inoculation, the rabbit was put back into its cage with access to food and water for another 8 hours.
The rabbit was re-anaesthetized with urethan 3.5 ml/kg ([…] 50%, 1.75 g/kg) s.c. at 7.30 a.m. A venous catheter was applied in the left ear-vein and Mebumal approx. 0.5-1 ml (Pentobarbital 50 mg/ml) i.v. was infused slowly until the rabbit was asleep and deeply anaesthetized. A three-way tap was connected to the venous catheter and syringes containing pentobarbital for supplemental anaesthetics and isotonic NaCl and heparin 1 Ul/ml for flushing were connected to the tap. Rabbits were observed every half hour. When the need for supplemental anaesthesia arose, additional 0.2 ml Mebumal (Pentobarbital 50 mg/ml) was given. During the experiment observations and anaesthetics were recorded in the scheme of the laboratory animal-department and in the book of the Laboratory Animal Inspection.
An arterial canula was applied in the artery of the right ear and used for blood-sampling throughout the experiment. A bolt was fastened to the turnbuckle embedded in the acrylic helmet, and the rabbit's head was fixed in a stereotactic frame. The rabbit remained fixed throughout the experiment.
Cisterna magna was punctured with a spinal-canula, fastened to the stereotactic frame. The canula was left in place throughout the experiment and used for CSF-sampling.
At the time-point relevant to the conducted experiment 1 ml of blood and 0.3 ml of CSF was aspirated from the arterial canula/the spinal needle and transferred to EDTA-tubes/Eppendorf-tubes. After the last sampling, the experiment was terminated and the rabbits were killed with an overdose of Mebumal (Pentobarbital 200 mg/ml).
CSF and plasma concentrations of Meningicin were measured by use of HPLC. When evaluating bacterial concentrations in inocula and samples, serial 10-fold dilutions (requiring 20 microliters of test-material) plated as spots of 50 microliters on blood-agar plates were used for calculations of CFU/ml.
Meningicin (dosages of 20, 40 and 80 mg/kg respectively) was administered through the three-way tap as an intravenous bolus infusion over 10 minutes at the beginning of the experiment. […]

[2] = system: Streptococcus pneumoniae (1395); assay: Minimum inhibitory concentration (MIC) against Streptococcus pneumoniae (1395); assay type: cell-based; details: penicillin-resistant serotype 9V
Source text: An Isolate of a penicillin-resistant serotype 9V Streptococcus pneumoniae (1395), originally isolated from the CSF of a person with meningitis, was used in the meningitis model. This strain was formerly used for evaluating the effectiveness of treatment of meningitis with Moxifloxacin (see Ostergaard et al., 1998, “Evaluation of moxifloxacin, a new 8-methoxyquinolone, for treatment of meningitis caused by a penicillin-resistant pneumococcus in rabbits”, Antimicrob Agents Chemother 42(7): 1706-1712).
The synthetic defensin used in the experiment is a polypeptide having the amino acid sequence shown in SEQ ID NO: 1.

[3] = penicillin-resistant serotype 9V (1395, rabbit, in vivo, 0 h)
[4] = 20 mg/kg i.v. bolus infusion over 10 minutes
[5] = 40 mg/kg i.v. bolus infusion over 10 minutes
[6] = 80 mg/kg i.v. bolus infusion over 10 minutes

With `CC[C@H](C)[C@@H]1NC(=O)[C@H](CO)NC(=O)[C@H](CCCCN)NC(=O)[C@@H]2CSSC[C@@H](C(=O)N[C@@H](Cc3ccc(O)cc3)C(=O)O)NC(=O)[C@H](CCCCN)NC(=O)[C@@H]3CSSC[C@H](NC(=O)[C@H](CCCNC(=N)N)NC(=O)[C@H](CC(C)C)NC(=O)[C@H](CC(=O)O)NC(=O)[C@H](CC(=O)O)NC(=O)[C@H](CCC(=O)O)NC(=O)[C@H](CC(N)=O)NC(=O)[C@H](Cc4c[nH]c5ccccc45)NC(=O)[C@@H]4CCCN4C(=O)CNC(=O)[C@H](CC(N)=O)NC(=O)[C@@H](NC(=O)CNC(=O)[C@H](Cc4ccccc4)NC(=O)CN)CSSC[C@H](NC(=O)[C@H](Cc4ccc(O)cc4)NC(=O)CNC(=O)CNC(=O)[C@H](CCCCN)NC(=O)[C@H](Cc4ccc(O)cc4)NC(=O)CNC(=O)[C@H](CCCCN)NC1=O)C(=O)N[C@@H](C)C(=O)N[C@@H](CCCCN)C(=O)NCC(=O)NCC(=O)N[C@@H](Cc1ccccc1)C(=O)N[C@@H](C(C)C)C(=O)N3)C(=O)N[C@@H](Cc1c[nH]cn1)C(=O)N[C@@H](CC(N)=O)C(=O)N[C@@H](Cc1c[nH]cn1)C(=O)N2` [Meningicin] the “reduction in bacterial burden in the cerebrospinal fluid (Δ log CFU)” value [1, 3] was 0.00 Δ log CFU, the “reduction in bacterial burden in the cerebrospinal fluid (Δ log CFU), Average” value (“reduction … (Δ log CFU), Average” for short) [1, 3] was 0.00 Δ log CFU and the “reduction … (Δ log CFU), Average” value ([1]; penicillin-resistant serotype 9V (1395, rabbit, in vivo, 3 h)) was −2.97 Δ log CFU. The “reduction … (Δ log CFU), Average” value ([1]; penicillin-resistant serotype 9V (1395, rabbit, in vivo, 5 h)) was −4.22 Δ log CFU, the “reduction … (Δ log CFU), Average” value ([1]; penicillin-resistant serotype 9V (1395, rabbit, in vivo, 10 h)) was −4.86 Δ log CFU and the “efficacy in treating meningitis” value ([1]; rabbit meningitis model, result in words) was “very high efficacy”. For the same compound, the “efficacy compared with Ceftriaxone” value ([1]; rabbit, in vivo) was “at least as high as the efficacy of Ceftriaxone”, the “bacterial burden in the cerebrospinal fluid” value ([1]; time 3 hours, Meningicin 40 mg/kg at 0 h + 20 mg/kg after 5 h) was 1,500 CFU/ml and 2,500 CFU/ml and 1,250 CFU/ml and the “bacterial burden in the cerebrospinal fluid” value ([1]; time 10 hours, Meningicin 40 mg/kg at 0 h + 20 mg/kg after 5 h) was 0.1 CFU/ml. For the same compound, the “bacterial burden in the cerebrospinal fluid” value ([1]; time −10 hours (before treatment), Meningicin group) was 240,000 CFU/ml, the “Meningicin penetration of the blood-brain barrier” value (“Meningicin penetration” for short) (in vivo; 20 mg/kg i.v.) was 21% and the “AUC CSF” value (in vivo; [4]) was 8,557 micrograms/l. For the same compound, the AUC serum (in vivo; [4]) was 40,162 micrograms/l, the “Peak concentration in CSF” value (in vivo; [4]) was 2,001 micrograms/l and the “Meningicin penetration” value (in vivo; 40 mg/kg i.v.) was 49%. For the same compound, the “AUC CSF” value (in vivo; [5]) was 47,902 micrograms/l, the AUC serum (in vivo; [5]) was 97,040 micrograms/l and the “Peak concentration in CSF” value (in vivo; [5]) was 10,230 micrograms/l. For the same compound, the “Meningicin penetration” value (in vivo; 80 mg/kg i.v.) was 16%, the “AUC CSF” value (in vivo; [6]) was 30,476 micrograms/l and the AUC serum (in vivo; [6]) was 192,990 micrograms/l. The “Peak concentration in CSF” value (in vivo; [6]) was 8,040 micrograms/l, the Cmax (in vivo; [4]) was 31.4 µg/mL and the Cmax (in vivo; [5]) was 113 µg/mL. The Cmax (in vivo; [6]) was 376 µg/mL and the “minimium inhibitory concentration (MIC)” value [2] was 0.25 micrograms/ml.
